According to ChEMBL document CHEMBL4433209, “Novel Cyclic Biphalin Analogues by Ruthenium-Catalyzed Ring Closing Metathesis: in Vivo and in Vitro Biological Profile” (2019):
Calls of active or inactive are those of the source. No cut-off for these calls is given here.

Sequences of proteins named here, by UniProt entry; tags and fusion partners are left off. A change or cut given only in a name is not applied to a line headed by its entry.
UniProt P41145: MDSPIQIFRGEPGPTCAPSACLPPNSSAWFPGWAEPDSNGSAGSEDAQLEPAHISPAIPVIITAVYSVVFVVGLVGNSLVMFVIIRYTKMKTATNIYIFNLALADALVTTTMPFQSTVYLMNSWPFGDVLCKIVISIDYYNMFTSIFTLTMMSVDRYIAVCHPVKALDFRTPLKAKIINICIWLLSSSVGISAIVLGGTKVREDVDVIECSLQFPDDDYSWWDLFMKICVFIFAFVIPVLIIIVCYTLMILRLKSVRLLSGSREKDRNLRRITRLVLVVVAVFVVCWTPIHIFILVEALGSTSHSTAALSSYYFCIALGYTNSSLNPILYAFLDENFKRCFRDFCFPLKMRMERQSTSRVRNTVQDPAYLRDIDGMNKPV
UniProt P41143, whole entry, looked up: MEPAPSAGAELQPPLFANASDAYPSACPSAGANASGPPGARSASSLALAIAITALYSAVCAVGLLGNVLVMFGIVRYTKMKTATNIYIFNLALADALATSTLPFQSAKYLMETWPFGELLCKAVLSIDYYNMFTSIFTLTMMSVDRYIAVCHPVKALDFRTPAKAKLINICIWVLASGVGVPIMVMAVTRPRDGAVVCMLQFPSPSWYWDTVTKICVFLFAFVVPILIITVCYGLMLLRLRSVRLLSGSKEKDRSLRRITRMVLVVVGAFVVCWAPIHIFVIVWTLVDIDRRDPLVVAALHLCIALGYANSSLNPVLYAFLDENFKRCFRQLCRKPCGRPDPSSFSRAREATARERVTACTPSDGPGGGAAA
UniProt P35372, whole entry, looked up: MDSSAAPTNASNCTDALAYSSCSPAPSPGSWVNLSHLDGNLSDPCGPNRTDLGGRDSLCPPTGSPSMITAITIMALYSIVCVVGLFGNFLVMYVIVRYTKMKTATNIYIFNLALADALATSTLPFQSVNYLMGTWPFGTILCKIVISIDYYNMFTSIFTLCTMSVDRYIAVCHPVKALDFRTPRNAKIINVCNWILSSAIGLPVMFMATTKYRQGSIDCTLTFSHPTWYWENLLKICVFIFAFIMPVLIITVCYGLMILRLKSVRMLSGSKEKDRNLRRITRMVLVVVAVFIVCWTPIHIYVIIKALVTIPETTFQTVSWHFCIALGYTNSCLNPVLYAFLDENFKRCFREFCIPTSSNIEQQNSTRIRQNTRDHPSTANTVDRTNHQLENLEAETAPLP

How the values were obtained:
Mus musculus [1] = experiment: Analgesic activity in CD1 mouse at 1.5 nmol, iv measured after 45 mins by hot plate test relative to control
Mus musculus [2] = experiment: Analgesic activity in CD1 mouse at 0.15 nmol, icv measured after 60 mins by hot plate test relative to control
[3] = target: Kappa-type opioid receptor (Homo sapiens) (UniProt P41145); experiment: Agonist activity at human kappa opioid receptor expressed in CHO cell membranes incubated for 1 hr by [35S]GTPgammaS binding assay relative to U50,488
[4] = target: Delta-type opioid receptor (Homo sapiens) (UniProt P41143); experiment: Antagonist activity at human delta opioid receptor expressed in CHO cell membranes assessed as reduction in SNC80-induced [35S]GTPgammaS binding incubated for 1 hr relative to control
[5] = target: Mu-type opioid receptor (Homo sapiens) (UniProt P35372); experiment: Agonist activity at human mu opioid receptor expressed in CHO cell membranes incubated for 1 hr by [35S]GTPgammaS binding assay relative to DAMGO
[6] = target: Delta-type opioid receptor (Homo sapiens) (UniProt P41143); experiment: Antagonist activity at human delta opioid receptor expressed in CHO cells assessed as reduction in SNC80-induced inhibition of forskolin stimulated cAMP accumulation preincubated for 15 mins followed SNC80 and forskolin addition and measured after 10 mins relative to control

Compound | Activity (Mus musculus [1]) | Activity (Mus musculus [2]) | Emax [3] [%] | Imax [4] [%] | Emax [5] [%] | Activity [6]
C[C@@H](NC(=O)[C@@H](N)Cc1ccc(O)cc1)C(=O)NCC(=O)N[C@@H](Cc1ccccc1)C(=O)NNC(=O)[C@H](Cc1ccccc1)NC(=O)CNC(=O)[C@@H](C)NC(=O)[C@@H](N)Cc1ccc(O)cc1 | Active | Active |  |  |  | 
N[C@@H](Cc1ccc(O)cc1)C(=O)N[C@@H]1C/C=C\C[C@@H](NC(=O)[C@@H](N)Cc2ccc(O)cc2)C(=O)NCC(=O)N[C@@H](Cc2ccccc2)C(=O)NNC(=O)[C@H](Cc2ccccc2)NC(=O)CNC1=O |  |  | 69 | 25.6 | 91 | inactive
N[C@@H](Cc1ccc(O)cc1)C(=O)N[C@@H]1C/C=C/C[C@@H](NC(=O)[C@@H](N)Cc2ccc(O)cc2)C(=O)NCC(=O)N[C@@H](Cc2ccccc2)C(=O)NNC(=O)[C@H](Cc2ccccc2)NC(=O)CNC1=O |  |  | 73.3 | 27.3 | 85.7 | inactive
